Results published in patent publication EP3925956B1, “1H-INDAZOLE-3-CARBOXAMIDE DERIVATIVES AND RELATED COMPOUNDS AS FACTOR D INHIBITORS FOR TREATING DISEASES CHARACTERIZED BY ABERRANT COMPLEMENT SYSTEM ACTIVITY, SUCH AS E.G. IMMUNOLOGICAL DISORDERS” (BioCryst Pharmaceuticals, Inc., priority 2016, dated 2017).

The chains behind the UniProt entries cited, without tags or fusion partners. Residues count along the entry.
UniProt P00746, 26-253: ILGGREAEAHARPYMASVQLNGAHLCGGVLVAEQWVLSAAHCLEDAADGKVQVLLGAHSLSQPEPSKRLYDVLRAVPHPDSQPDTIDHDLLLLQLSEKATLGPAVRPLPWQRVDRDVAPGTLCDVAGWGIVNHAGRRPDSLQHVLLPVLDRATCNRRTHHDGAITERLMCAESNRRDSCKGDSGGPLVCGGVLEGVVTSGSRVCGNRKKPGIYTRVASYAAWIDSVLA

Molecular target: Factor D (Homo sapiens, UniProt P00746)
Experiment: Factor D esterolytic assay

CC(C)N(CC(=O)NCc1cccc(Cl)c1F)C(=O)Cn1nc(C(N)=O)c2cc(C(=O)NCC3CC3)ccc21 [174a]
IC50: < 1000 nM
